Data set [1] concerns microglia.
For data set [2], the system named is microglia. The data set is described as follows: AβO-induced microglia proliferation/activation (cell number). It counts as cell-based, mouse.
The next data set has as its system retinal ganglion cell. The conditions noted are these: rats, intraocular injection; cited from earlier work.
A short description of data set [3]: Pharmacokinetics and brain concentrations in rats (HPLC/MS). The conditions noted are these: rat; for concentration at 12 h: ip. How it is done:
At various time points following the injection approximately 100-200 μl of blood were collected from a tail nick into EDTA blood sample collection tubes. […] Blood samples were taken by cardiac puncture under deep isoflurane anesthesia. The right atrium was then cut open and 20 mL of saline slowly injected into the left ventricle to flush the blood out of the circulation. The rats were then sacrificed and brains removed. Plasma was separated by centrifugation and samples stored at −80° C. pending analysis. Plasma and homogenized brain samples were purified using C18 solid phase extraction (SPE) cartridges. […] LC/MS analysis was performed with a Hewlett-Packard 1100 series HPLC stack equipped with a Merck KGaA RT 250-4 LiChrosorb RP-18 column interfaced to a Finnigan LCQ Classic MS. The mobile phase consisted of acetonitrile and water, both containing 0.2% formic acid.

For `Clc1ccccc1C(c1ccccc1)(c1ccccc1)n1cccn1` [TRAM-34, 1-[(2-chlorophenyl)diphenylmethyl]-1H-pyrazole], the “beneficial activities of microglia such as migration and phagocytosis” value with microglia [1] is reported as “does not affect”. In the data set with microglia [2] (20 nM AβO 24 hrs, 100 ng/ml poly I, 10 μg/ml E-20, 20 μM doxycycline, 1 μM TRAM-34, FIG. 3), the “AβO-induced microglia activation / proliferation” value is “block”. Also, the “microglia viability, compound alone (cell count and NO generation)” value with microglia [2] (TRAM-34 alone) is listed as “did not affect microglia viability”. For the same compound, in the data set with retinal ganglion cell, the “retinal ganglion cell degeneration after optic nerve transection” value was “reduced retinal ganglion cell degeneration”. Moreover, the concentration at 12 h in data set [3] (Wistar, in vivo, 10 mg/kg, homogenized brain tissue concentration, i.p. 10 mg/kg, within 12 hours) is 191 ± 41 nM; in data set [3] (Wistar, in vivo, 10 mg/kg, plasma concentration at the time of sacrifice, MCAO rats, 10 mg/kg i.p. twice daily 7 days, 12 hours after last application, mean±SD), 91 ± 46 nM; in data set [3] (Wistar, in vivo, 10 mg/kg, plasma concentration, i.p. 10 mg/kg, within 12 hours), 58 ± 9 nM; in data set [3] (Wistar, in vivo, 40 mg/kg, plasma and brain concentrations, i.p. 40 mg/kg, at 12 hours), ~400 nM; in data set [3] (Wistar, in vivo, 40 mg/kg, plasma concentration at the time of sacrifice, MCAO rats, 40 mg/kg i.p. twice daily 7 days, 12 hours after last application, mean±SD) it was 662 ± 416 nM. Moreover, the concentration at 24 h in data set [3] (male, Wistar, in vivo, iv, 10 mg/kg, total plasma concentration, i.v. 10 mg/kg, at 24 hours) is 250 nM. For the same compound, in data set [3] (compared to i.v. or i.p.), the “bioavailability following s.c. administration” value is recorded as “very poor”. In data set [3] (i.p. 40 mg/kg, for 8 hours), the “plasma and brain concentrations” value is “exceeding 1 μM”. The brain penetration entry in data set [3] (i.p. injection) is listed as “effectively penetrates into the brain”. The “total plasma concentration, peak” value in data set [3] (i.v. 10 mg/kg, 8 min after application) turned out to be 40 µM.

The values above are taken from US20130281504A1, “Reduction of Microglia-Mediated Neurotoxicity by KCa3.1 Inhibition” (THE REGENTS OF THE UNIVERSITY OF CALIFORNIA, priority 2010, published 2013).
